Target: Rat brain mitochondrial MAO (MAO-A) (Rattus norvegicus, UniProt P21396)
Test: MAO-A assay in vitro, serotonin as substrate
Assay type: biochemical

The chains behind the UniProt entries cited, without tags or fusion partners.
UniProt P21396, whole entry: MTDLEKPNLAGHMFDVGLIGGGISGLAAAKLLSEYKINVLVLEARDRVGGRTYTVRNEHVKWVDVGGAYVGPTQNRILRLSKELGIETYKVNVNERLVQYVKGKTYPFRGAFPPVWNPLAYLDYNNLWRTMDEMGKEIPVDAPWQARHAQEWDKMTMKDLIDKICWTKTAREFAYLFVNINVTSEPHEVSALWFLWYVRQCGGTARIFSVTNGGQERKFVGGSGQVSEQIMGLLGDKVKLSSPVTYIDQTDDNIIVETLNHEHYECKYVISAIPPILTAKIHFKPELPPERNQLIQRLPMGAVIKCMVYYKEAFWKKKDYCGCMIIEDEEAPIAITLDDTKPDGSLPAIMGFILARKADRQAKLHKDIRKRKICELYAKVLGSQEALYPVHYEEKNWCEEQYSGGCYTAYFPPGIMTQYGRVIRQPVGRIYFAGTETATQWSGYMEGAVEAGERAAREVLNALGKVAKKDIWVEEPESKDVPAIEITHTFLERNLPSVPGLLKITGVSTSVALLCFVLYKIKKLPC

- IC50: 37 µM
SMILES: CC(C)NNC(=O)c1ccncc1 [Iproniazid, reference compound]
